In this experiment the target is Histone deacetylase 4 (Homo sapiens, UniProt P56524). Description: Inhibition of C-terminal GST-tagged human HDAC4 (101 to 1084 resides) expressed in baculovirus expression system using FAM-RHKK(TF-Ac)-NH2 substrate incubated for 1.5 hrs by EMSA method.

Chains of the proteins cited; added tags and fusions are not shown. Lines headed by an entry give the natural chain unless they say otherwise; changes in a name come on top.
UniProt P56524: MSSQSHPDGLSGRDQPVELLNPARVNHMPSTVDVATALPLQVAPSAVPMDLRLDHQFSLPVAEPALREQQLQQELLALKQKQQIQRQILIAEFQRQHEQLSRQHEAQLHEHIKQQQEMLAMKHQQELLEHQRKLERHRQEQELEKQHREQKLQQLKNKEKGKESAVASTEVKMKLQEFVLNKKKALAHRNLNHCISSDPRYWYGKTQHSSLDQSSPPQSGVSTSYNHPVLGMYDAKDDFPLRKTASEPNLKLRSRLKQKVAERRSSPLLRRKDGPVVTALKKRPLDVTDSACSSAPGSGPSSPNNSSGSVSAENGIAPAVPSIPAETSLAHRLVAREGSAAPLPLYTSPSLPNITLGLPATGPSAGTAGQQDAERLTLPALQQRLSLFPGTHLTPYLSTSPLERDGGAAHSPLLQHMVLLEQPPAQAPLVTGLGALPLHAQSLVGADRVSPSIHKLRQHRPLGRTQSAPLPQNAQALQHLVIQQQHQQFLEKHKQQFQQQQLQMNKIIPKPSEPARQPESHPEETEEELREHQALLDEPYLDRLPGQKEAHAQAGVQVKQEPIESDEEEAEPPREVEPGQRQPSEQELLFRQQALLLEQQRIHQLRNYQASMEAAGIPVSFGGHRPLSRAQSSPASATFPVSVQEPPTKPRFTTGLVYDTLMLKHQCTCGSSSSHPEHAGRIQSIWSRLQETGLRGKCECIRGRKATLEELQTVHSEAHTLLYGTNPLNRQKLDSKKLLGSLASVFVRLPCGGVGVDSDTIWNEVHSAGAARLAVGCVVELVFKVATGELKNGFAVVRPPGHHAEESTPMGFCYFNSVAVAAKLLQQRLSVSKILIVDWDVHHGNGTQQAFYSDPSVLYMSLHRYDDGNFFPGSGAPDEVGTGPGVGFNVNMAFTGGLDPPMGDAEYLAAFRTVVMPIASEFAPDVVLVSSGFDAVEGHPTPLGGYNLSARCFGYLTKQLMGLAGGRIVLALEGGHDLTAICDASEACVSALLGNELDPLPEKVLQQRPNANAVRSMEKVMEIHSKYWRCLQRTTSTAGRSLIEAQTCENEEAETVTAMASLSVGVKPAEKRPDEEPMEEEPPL

Our source for the IC50 values is ChEMBL document CHEMBL4616727, “Characterization of Conformationally Constrained Benzanilide Scaffolds for Potent and Selective HDAC8 Targeting” (J Med Chem, 2020).

The structures appear in SMILES notation.

The compound `COc1ccc(Cn2ccc3ccc(C(=O)NO)cc32)cc1` had an IC50 of more than 10 µM.
